As to sunitinib D-tartrate, the “Solubility of sunitinib salts in water at 25° C.” value stood at 142 mg/mL.
For sunitinib L-tartrate the value was 111 mg/mL.

These data come from patent publication US8686023B2, “Salts of sunitinib” (Lek Pharmaceuticals D.D., priority 2008, dated 2014).
